Earlier results, collected in patent US11020395B2, “Cycloalkyl substituted triazole compounds as agonists of the APJ receptor” (AMGEN INC., priority 2016, dated 2021).

Conditions: in vivo; cited from earlier work

Apelin-13
plasma half-life: < 5 min
